Here are results for 1 substance from patent US20050142135A1, “Agents and methods for modulating interactions between gonadotropin hormones and receptors” (University of Kentucky Research Foundation, priority 2003, published 2005).

The chains behind the UniProt entries cited, without tags or fusion partners. Residues count along the entry.
UniProt P23945, 18-695, stated change not applied: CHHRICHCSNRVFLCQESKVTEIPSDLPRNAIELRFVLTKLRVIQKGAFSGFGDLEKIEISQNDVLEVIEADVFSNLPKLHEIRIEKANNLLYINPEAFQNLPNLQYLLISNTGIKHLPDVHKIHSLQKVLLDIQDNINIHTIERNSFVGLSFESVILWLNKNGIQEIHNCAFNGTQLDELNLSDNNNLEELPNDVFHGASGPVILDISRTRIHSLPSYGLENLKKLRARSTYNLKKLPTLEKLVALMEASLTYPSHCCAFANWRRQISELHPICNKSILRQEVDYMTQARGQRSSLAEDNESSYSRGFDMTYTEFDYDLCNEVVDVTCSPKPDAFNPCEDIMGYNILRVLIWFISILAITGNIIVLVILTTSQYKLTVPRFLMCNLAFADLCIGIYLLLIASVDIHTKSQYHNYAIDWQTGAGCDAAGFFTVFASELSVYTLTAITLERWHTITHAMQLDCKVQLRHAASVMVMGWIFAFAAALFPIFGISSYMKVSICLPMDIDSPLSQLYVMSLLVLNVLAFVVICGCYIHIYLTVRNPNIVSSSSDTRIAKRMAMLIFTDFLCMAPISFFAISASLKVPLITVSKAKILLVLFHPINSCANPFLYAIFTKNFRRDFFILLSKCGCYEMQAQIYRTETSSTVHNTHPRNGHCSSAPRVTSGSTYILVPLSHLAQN

What all share (experiment): 125I-FSH displacement / Scatchard
Settings in all cases: ligand

Assay [1] concerns the target FSHR I^584 deletion mutant (human) (UniProt P23945).
The target of assay [2] is FSHR I^584C mutant (human) (UniProt P23945).
Assay [3] deals with FSHR I^584E mutant (human) (UniProt P23945).
Assay [4] deals with FSHR I^584P mutant (human) (UniProt P23945).
Assay [5] has as its target FSHR I^584Q mutant (human) (UniProt P23945).
Assay [6] deals with FSHR I^584S mutant (human) (UniProt P23945).
Assay [7] deals with FSHR I^584Y mutant (human) (UniProt P23945).
Assay [8] addresses FSHR K^590 deletion mutant (human) (UniProt P23945).
The target of assay [9] is FSHR K^590A mutant (human) (UniProt P23945).
Assay [10] has as its target FSHR K^590C mutant (human) (UniProt P23945).
For assay [11], the target named is FSHR K^590D mutant (human) (UniProt P23945).
Assay [12] deals with FSHR K^590E mutant (human) (UniProt P23945).
For assay [13], the target named is FSHR K^590P mutant (human) (UniProt P23945).
Assay [14] deals with FSHR K^590R mutant (human) (UniProt P23945).
Assay [15] addresses FSHR K^590Y mutant (human) (UniProt P23945).

By Kd is commonly meant a measure of binding affinity in units of concentration. Low readings indicate higher affinity, high ones lower affinity.

“human FSH (from UniProt P01215 25-116; P01225 19-129)”: the Kd in assay [1] was found to be 0.8 nM; in assay [2], 1.8 nM; in [3] it was 1.1 nM; in [4], 0.7 nM; in [5], 0.8 nM; in assay [6] it was 1 nM. The equilibrium dissociation constant (Kd) in assay [7] is 1.2 nM; in assay [8] it was 1.6 nM; in [9], 6.9 nM; in [10] it was 5.9 nM; in assay [11], 1.9 nM; in assay [12] it was 2.9 nM. The dissociation constant (Kd) in assay [13] worked out at 1.9 nM; in assay [14], 2.9 nM; in assay [15] it was 28.7 nM.
